Data published in article PMC10033409, “Autoregulation of GPCR signalling through the third intracellular loop” (Nature, 2023).
Where a name gives a salt, the structure may show the parent alone.

Target: T1, PTH1R (Homo sapiens, UniProt Q03431)
T1 construct: expressed in transfected cells; host or cells: HEK 293T
T1 sequence (Q03431 27-593): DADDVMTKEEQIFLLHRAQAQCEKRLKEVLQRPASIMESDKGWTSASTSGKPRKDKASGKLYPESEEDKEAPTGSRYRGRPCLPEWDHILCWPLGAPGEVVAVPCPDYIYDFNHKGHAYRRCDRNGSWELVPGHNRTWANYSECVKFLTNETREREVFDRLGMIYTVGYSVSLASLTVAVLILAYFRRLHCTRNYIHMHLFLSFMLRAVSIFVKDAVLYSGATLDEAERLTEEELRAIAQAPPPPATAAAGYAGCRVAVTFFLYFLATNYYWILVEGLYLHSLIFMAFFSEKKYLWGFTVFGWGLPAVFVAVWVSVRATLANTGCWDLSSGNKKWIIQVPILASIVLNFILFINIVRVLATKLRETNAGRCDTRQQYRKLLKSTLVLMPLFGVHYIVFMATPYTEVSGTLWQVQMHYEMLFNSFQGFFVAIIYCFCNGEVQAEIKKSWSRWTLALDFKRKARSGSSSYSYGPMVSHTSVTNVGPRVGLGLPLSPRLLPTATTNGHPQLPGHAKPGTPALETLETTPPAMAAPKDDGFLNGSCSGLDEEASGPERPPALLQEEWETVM
Assay: InsP1 accumulation, PTH1R
Format: cell-based
Settings: PTH1R Wild-Type; [Isoproterenol] log(M) -9.30103

## CC(C)NCC(O)c1ccc(O)c(O)c1 (stereo not drawn) [Isoproterenol, isoproterenol (+)-bitartrate salt]
  IP1 (AU), Average: 0.0339 AU
